From ChEMBL document CHEMBL1287773, “4-aryl piperazine and piperidine amides as novel mGluR5 positive allosteric modulators” (Bioorg Med Chem Lett, 2010)

Biological target: Metabotropic glutamate receptor 5 (Rattus norvegicus) (UniProt P31424)
Experiment: Displacement of [3H]-MPEP from human mGluR5

Ki: 250 nM
SMILES: N#Cc1cccc(C(=O)Nc2cc(-c3ccccc3)nn2-c2ccccc2)c1
